{
  "source": "patent US6458758B1",
  "about": "“Compositions and methods utilizing nitroxides in combination with biocompatible macromolecules” (Synzyme Technologies, Inc., priority 1993, dated 2002)",
  "key": {"rats": {"tested_on": "rats", "assay": "Transient MCA suture occlusion (2 h) and 22 h reperfusion in rats", "type": "in vivo, rat", "method": "As a model of prophylactic therapy in the surgical/perioperative stroke setting, PNA was administered to mice both before MCA occlusion and after reperfusion. Because albumin alone may provide modest protection against cerebral ischemia, PNA was tested with both HSA and saline as controls.\nRats were subjected to 2 hours of suture occlusion of the MCA, followed by 22 hours of reperfusion. Drug or saline was administered IV in a total dose of 1% of body weight (v/w), divided as follows: ½ the total dose was given 5 minutes before MCA occlusion; ¼ of the total dose was given five minutes before the suture was removed to allow reperfusion of the MCA; and the final ¼ of the total dose was given 2 hours after reperfusion. Brain sections were stained with TTC."}, "rat brain": {"tested_on": "rat brain", "assay": "Diffusion-weighted MRI of rat brain during MCA occlusion and reperfusion", "type": "in vivo", "from_the_text": "In addition, the protection offered by PNA against reperfusion injury is indicated by the rapid disappearance of DWI hyperintensity following reperfusion.\nIn stroke, hyperintensity on DWI is thought to be a real-time indicator of the course of cerebral damage during ischemia. Perfusion-weighted imaging (PWI) was used in this experiment to confirm the occlusion and reperfusion of the MCA (images not shown). […] For comparison, in control images (not shown) a distinct DWI image typically appears within 5-10 minutes of MCA occlusion. […] For comparison, control images typically show progression of the DWI image after reperfusion, reflecting reperfusion injury. Rows E and F show images made, respectively, 1 hour and 2 hours post-reperfusion, confirming the absence of a DWI image."}, "[1]": {"assay": "Plasma levels of TPL with or without PNA in C57 mice (EPR)", "conditions": "PNA 0.5 ml/mouse, 20 g/dl albumin, 42 moles TPL per mole albumin"}, "conscious rats": {"tested_on": "conscious rats", "assay": "Mean arterial pressure response in conscious rats"}, "CD-1 mice": {"tested_on": "CD-1 mice", "assay": "Focal cerebral ischemia (MCA/CCA occlusion 1 h) and reperfusion in CD-1 mice", "type": "in vivo", "conditions": "for infarct volume / % infarction: mean±SEM", "method": "The animals were subjected to middle cerebral artery (MCA) occlusion and reperfusion by the method of Yang et al. (Stroke 25: 165-170, 1994) with occlusion of the ipsilateral common carotid artery (CCA). PNA or a control solution of human serum albumin was injected intravenously just before one hour of MCA occlusion (pre-ischemia group) or just after reperfusion following one hour of ischemia (post-reperfusion group). The dose was 0.5% of body weight, v/w). Body temperature was maintained within the range 36.5-37.5° C. during the surgery. Mean arterial pressure and blood gasses were measured in four animals to insure a valid control group.\nTwenty-four hours after reperfusion, animals were assessed for neurological deficit as described by Bederson et al. (Stroke 17: 472-476, 1986). Neurological deficits were scored on the following scale: 0+no observable deficit, 1+failure to extend right forepaw, 2+circling to the right, 3+falling to the right, 4+cannot walk spontaneously. Following the neurological assessment, the animals were decapitated and the brains rapidly removed and frozen for histological analysis. Coronal sections 20 Mm thick were made at intervals of 0.5 mm from the anterior tip of the brain and strained with cresyl violet in order to evaluate infarction (n+7 animals). Infarct volume was calculated by integrating infarct size (measured in mm^2 in the serial sections."}, "mouse": {"tested_on": "mouse", "assay": "Protection against stroke injury in the mouse (MCA suture occlusion, PNA 1% v/w twice)", "type": "in vivo", "from_the_text": "Chan, P. H., C. J. Epstein, H. Kinouchi, H. Kamii, G. Yang, S. F. Chen, J. Gafni, and E. Carlson (1994). SOD-1 transgenic mice as a model for studies of neuroprotection in stroke and brain trauma. Ann. N.Y. Acad. Sci. 738:93-103. Chan, P. H., C. J. Epstein, H. Kinouchi, S. Imaizumi, E. Carlson, and S. F. Chen (1993). Role of superoxide dismutase in ischemic brain injury: Reduction of edema and infarction in transgenic mice following focal cerebral ischemia. In Molecular Mechanisms of Ischemic Brain Damage, K. Kogure and B. K. Siesjo, eds. Amsterdam: Elsevier. pp. 97-104. Kinouchi, H., C. J. Epstein, T. Mizui, E. Carlson, S. F. Chen and P. H. Chan (1991). Attenuation of focal cerebral ischemic injury in transgenic mice overexpressing CuZn superoxide dismutase. Proc. Natl. Acad. Sci. USA 88:11158-11162. Imaizumi, S., V. Woolworth, and R. A. Fishman (1990). Liposome-encapsulated superoxide dismutase reduces cerebral infarction in cerebral ischemia in rats. Stroke 21: 1312-1317. Liu, T. H., J. S. Beckman, B. A. Freeman, E. L. Hogan, and C. Y. Hsu (1989). Polyethylene glycol-conjugated superoxide dismutase and catalase reduce ischemic brain injury. Am. J. Physiol. 256: H586-H593. Chan, P. H., S. Longar, and R. A. Fishman (1987). Protective effects of liposome-entrapped superoxide dismutase on post-traumatic brain edema. Ann. Neurol. 21: 540-547. […] Ten minutes later, the middle coronary artery (MCA) was occluded by luminal blockade using a nylon suture. After one hour of ischemia, reperfusion, and after 24 hours of reperfusion, animals were assessed for neurological function and sacrificed for histological measurement of infarction and edema. […] In contrast, in the brain of the treated mouse, the involved hemisphere is normal and symmetric with the contralateral one in terms of size, shape, and staining density. Serial sections as shown in FIG. 34C indicate the anatomic distribution of ischemic injury throughout the brain of a representative control animal, and the normal appearance of the brain of a representative treated animal. […] The following table summarizes data on the reduction in neurological deficit, percent infarction (calculated from infarction areas in serial sections), and hemisphere enlargement in the treated animals."}, "[2]": {"conditions": "0.2 ml PNA iv two hours after TEMPOL injection, mouse"}, "[3]": {"conditions": "total dose 1% of body weight iv, divided"}, "[4]": {"conditions": "mean ± S.E.M., 24 hours of reperfusion"}},
  "data": [
    {"substance": "PNA", "values": [
      {"measurement": "grossly visible infarction in stained coronal sections", "setting": "rats; rat, in vivo", "value": "no grossly visible infarction"},
      {"measurement": "% infarction", "setting": "rats; [3]", "value": "approximately 2±36%"},
      {"measurement": "mean infarct volume", "setting": "rats; [3]", "value": "18±22", "unit": "mm^3"},
      {"measurement": "time after MCA occlusion at which DWI hyperintensity begins to appear", "setting": "rat brain; PNA present before ischemia, 1.5-hour occlusion", "value": 30, "unit": "min"},
      {"measurement": "progression of ischemic injury in the brain (DWI)", "setting": "rat brain; PNA present before the onset of ischemia", "value": "substantially slowing the progression of ischemic injury"},
      {"measurement": "histology 24 hours post-MCA occlusion", "setting": "rat brain; rat, in vivo", "value": "small infarct in the basal ganglia, and no cortical infarct"},
      {"measurement": "enhancement of plasma level of TPL in the presence of PNA", "setting": "[1]", "value": "greater than tenfold"},
      {"measurement": "vasodilatory effect", "setting": "conscious rats; 10% v/v top load, PNA 5 g/dl, TPL 100 mM", "value": "no significant vasodilatory effect"},
      {"measurement": "antihypertensive effect when injected alone with HBOC", "setting": "conscious rats; conscious rats", "value": "no antihypertensive effect"},
      {"measurement": "neurological deficit", "setting": "CD-1 mice; PNA 0.5% v/w before ischemia or immediately after reperfusion, 24 hrs post-reperfusion", "value": "significantly reduces"},
      {"measurement": "hemisphere enlargement", "setting": "CD-1 mice; treated at the onset of reperfusion", "value": 3.056, "unit": "%"},
      {"measurement": "infarct volume", "setting": "CD-1 mice; treated before the onset of ischemia, 24 hrs post-reperfusion", "value": 6.956, "unit": "mm^3"},
      {"measurement": "infarct volume", "setting": "CD-1 mice; treated immediately after reperfusion, 24 hrs post-reperfusion", "value": 13.710, "unit": "mm^3"},
      {"measurement": "% infarction", "setting": "CD-1 mice; treated immediately post-reperfusion", "value": 9.210, "unit": "%"},
      {"measurement": "hemisphere enlargement", "setting": "CD-1 mice; treated pre-ischemia", "value": 0.094, "unit": "%"},
      {"measurement": "% infarction", "setting": "CD-1 mice; treated pre-ischemia", "value": 5.148, "unit": "%"},
      {"measurement": "protection against infarction", "setting": "mouse; FIG. 32A", "value": "essentially complete protection"},
      {"measurement": "Neurological Deficit Score", "setting": "mouse; mean rank of deficits, 24 hours of reperfusion", "value": 2.0},
      {"measurement": "% Hemisphere Enlargement", "setting": "mouse; [4]", "value": "1.7 ± 0.9", "unit": "%"},
      {"measurement": "% infarction", "setting": "mouse; [4]", "value": "1.9 ± 1.9", "unit": "%"},
      {"measurement": "persistence of regenerated TEMPOL signal", "setting": "[2]", "value": "more than two hours"},
      {"measurement": "time to reappearance of TEMPOL signal", "setting": "[2]", "value": "≤ 4", "unit": "min"}
    ]}
  ]
}
